# Reference: PubChem BioAssay AID2066 (NMMLSC, 2009)
# The entries are a selection whose mix differs from that of the whole data set. Some tests of the compounds listed are not included; inactive here does not mean inactive elsewhere. The source made the active and inactive calls.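 The calls were made as follows: active = GFP response relative to DMSO above a set limit, near screen average plus 3 SD (cut at about 150% in these data); inconclusive = fewer than 70 cells counted for the yeast strain; inactive = the rest.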
# Assay: yeast AGP1-GFP level changes, GLN3 branch – cell-based, multiplex flow cytometry, S. cerevisiae, MLPCN library, primary screen (AID 2066);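 also: median GFP channel fluorescence of the gated AGP1 strain per well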
# Details: 3 h, at 10 µM, active compounds read high, GFP as percent of DMSO wells
row,SMILES,GFP response vs DMSO
1,O=C(NCC1(N2CCCCC2)CCCCC1)c1cc(F)c(F)cc1Cl,inactive: 96.6%
2,C=CCN1CCN(CCOC(=O)C(O)(c2ccccc2)c2ccccc2)CC1,inactive: 99%
3,COc1ccc(C(=O)NCC2(N(C)C)CCCCC2)cc1,inactive: 96.2%
4,O=C(NCC1(N2CCCCC2)CCCCC1)c1cccc(Br)c1,inactive: 103%
5,CCN1CCCC(OC(=O)C2(O)c3ccccc3C=Cc3ccccc32)C1 (stereo not drawn),inactive: 92.4%
6,CN(C)C1CCCC1OC(=O)C(O)(c1ccccc1)c1ccccc1 (stereo not drawn),inactive: 113%
7,CN(C)c1ccc(C(=O)NCC2(N(C)C)CCCCC2)cc1,inactive: 102%
8,Cc1ccccc1C(=O)NCC1(N2CCCCC2)CCCCC1,inactive: 101%
9,COc1cc(SC)ccc1C(=O)NCC1(N(C)C)CCCCC1,inactive: 74.5%
10,CCN(CC)CC(C)C(C)OC(=O)C(O)(c1ccccc1)c1ccccc1 (stereo not drawn),inactive: 97.4%
11,CC(C)N1C(=O)CC2(CCN(CCOC(=O)C(O)(c3ccccc3)c3ccccc3)CC2)C1=O,inactive: 103%
12,Cc1ccc(C(=O)NCC2(N3CCCCC3)CCCCC2)cc1,inactive: 103%
13,O=C(NCC1(N2CCCCC2)CCCCC1)c1cc([N+](=O)[O-])ccc1Cl,inactive: 96.6%
14,CN1[C@@H]2CC[C@H]1CC(OC(=O)C(O)(c1ccccc1)c1ccccc1)C2 (stereo partly drawn),inactive: 96.2%
15,COc1ccc(Br)c(C(=O)NCC2(N3CCCCC3)CCCCC2)c1,inactive: 104%
16,CC(C)Oc1ccc(C(=O)NCC2(N(C)C)CCCCC2)cc1,inactive: 96.2%
17,CN(C)c1cccc(C(=O)NCC2(N(C)C)CCCCC2)c1,inactive: 107%
18,O=C(OC1CN2CCC1CC2)C(CO)(c1ccccc1)c1ccccc1 (stereo not drawn),inactive: 112%
19,COc1ccc(Cl)cc1C(=O)NCC1(N(C)C)CCCCC1,inactive: 105%
20,COc1cccc(C(=O)NCC2(N3CCCCC3)CCCCC2)c1,inactive: 102%
21,O=C(NCC1(N2CCCCC2)CCCCC1)c1cccc(Cl)c1,inactive: 99.2%
22,CN(C)C1(CNC(=O)c2ccc(Br)cc2)CCCCC1,inactive: 99.6%
23,COc1cc(C(=O)NCC2(N(C)C)CCCCC2)c([N+](=O)[O-])cc1OC,inactive: 95%
